Membrane permeability of cyclic peptides

Values of Townsend et al. 2020, doi:10.26434/chemrxiv.13335941.v1, as listed in CycPeptMPDB.

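The data file gives no further conditions (lipid, pH, time, direction or concentration), and values from different papers need not be comparable. Other peptides of the study may be missing here. Entries at the database's floor value (log10 P of -10) are not listed.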

PAMPA measures passive passage through an artificial lipid membrane. P is given in units of 10^-6 cm/s (from log10 values with two decimals); larger means faster passage.

{"smiles": "CC(C)C[C@@H]1NC(=O)[C@@H]2CCCN2C(=O)[C@H](CC(C)C)N(C)C(=O)[C@@H](CC(C)C)NC(=O)[C@H](C)NC(=O)[C@H](Cc2ccccc2)NC1=O", "PAMPA (10^-6 cm/s)": "0.55"}
{"smiles": "CC(C)C[C@@H]1NC(=O)[C@@H](C)NC(=O)[C@H](Cc2ccccc2)NC(=O)CN(Cc2ccccc2)C(=O)[C@@H]2CCCN2C(=O)[C@@H](CC(C)C)NC1=O", "PAMPA (10^-6 cm/s)": "0.48"}
{"smiles": "CC(C)C[C@@H]1C(=O)N2CCC[C@H]2C(=O)N[C@H](CC(C)C)C(=O)N[C@@H](Cc2ccccc2)C(=O)N(C)[C@H](C)C(=O)N(C)[C@@H](CC(C)C)C(=O)N1C", "PAMPA (10^-6 cm/s)": "17"}
{"smiles": "CC(C)C[C@@H]1NC(=O)[C@H](CC(C)C)N(C)C(=O)[C@H](C)NC(=O)[C@H](Cc2ccccc2)NC(=O)CN(Cc2ccccc2)C(=O)[C@@H]2CCCN2C1=O", "PAMPA (10^-6 cm/s)": "2.3"}
{"smiles": "CC(C)C[C@@H]1NC(=O)[C@@H](C)NC(=O)[C@@H]2CCCN2C(=O)[C@H](Cc2ccccc2)NC(=O)[C@H](CC(C)C)NC(=O)[C@@H]2CCCN2C(=O)[C@@H](CC(C)C)NC1=O", "PAMPA (10^-6 cm/s)": "0.47"}
{"smiles": "CC(C)C[C@@H]1NC(=O)[C@@H]2CCCN2C(=O)CN(Cc2ccccc2)C(=O)[C@@H](CC(C)C)NC(=O)[C@H](C)N(C)C(=O)[C@H](Cc2ccccc2)NC1=O", "PAMPA (10^-6 cm/s)": "3.6"}
{"smiles": "CCCN1CC(=O)N(C)[C@H](CC(C)C)C(=O)N(C)[C@H](CC(C)C)C(=O)N2CCC[C@H]2C(=O)N(C)[C@H](CC(C)C)C(=O)N[C@@H](Cc2ccccc2)C(=O)N2CCC[C@@H]2C1=O", "PAMPA (10^-6 cm/s)": "7.8"}
{"smiles": "CC(C)C[C@@H]1NC(=O)[C@H](C)N(C)C(=O)[C@H](Cc2ccccc2)NC(=O)[C@H](CC(C)C)N(C)C(=O)[C@H]2CCCN2C(=O)[C@H](CC(C)C)NC1=O", "PAMPA (10^-6 cm/s)": "3.7"}
{"smiles": "CCCN1CC(=O)N(C)[C@H](CC(C)C)C(=O)N(C)[C@@H](CC(C)C)C(=O)N2CCC[C@@H]2C(=O)N(C)[C@H](CC(C)C)C(=O)N[C@@H](Cc2ccccc2)C(=O)N2CCC[C@H]2C1=O", "PAMPA (10^-6 cm/s)": "11"}
{"smiles": "CCCN1CC(=O)N[C@@H](CC(C)C)C(=O)N(C)[C@@H](CC(C)C)C(=O)N2CCC[C@@H]2C(=O)N[C@@H](CC(C)C)C(=O)N[C@@H](Cc2ccccc2)C(=O)N2CCC[C@@H]2C1=O", "PAMPA (10^-6 cm/s)": "4.8"}
{"smiles": "CC(C)C[C@@H]1C(=O)N(Cc2ccccc2)CC(=O)N2CCC[C@H]2C(=O)N(C)[C@@H](CC(C)C)C(=O)N[C@@H](Cc2ccccc2)C(=O)N[C@@H](C)C(=O)N1C", "PAMPA (10^-6 cm/s)": "3.1"}
{"smiles": "CC(C)C[C@@H]1NC(=O)[C@H](C)N(C)C(=O)[C@H](Cc2ccccc2)NC(=O)[C@@H](CC(C)C)NC(=O)[C@@H]2CCCN2C(=O)[C@H](CC(C)C)NC1=O", "PAMPA (10^-6 cm/s)": "0.47"}
{"smiles": "CC(C)C[C@H]1NC(=O)[C@H](C)NC(=O)[C@H](Cc2ccccc2)NC(=O)[C@H](CC(C)C)N(C)C(=O)[C@H]2CCCN2C(=O)[C@H](CC(C)C)N(C)C1=O", "PAMPA (10^-6 cm/s)": "3.5"}
{"smiles": "CC(C)C[C@@H]1NC(=O)[C@@H](C)NC(=O)[C@H]2CCCN2C(=O)[C@H](Cc2ccccc2)NC(=O)[C@H](CC(C)C)NC(=O)[C@@H]2CCCN2C(=O)[C@@H](CC(C)C)NC1=O", "PAMPA (10^-6 cm/s)": "1.3"}
{"smiles": "CC(C)C[C@@H]1C(=O)N[C@@H](Cc2ccccc2)CC(=O)N2CCC[C@@H]2C(=O)N[C@H](CC(C)C)C(=O)N[C@@H](Cc2ccccc2)C(=O)N2CCC[C@H]2C(=O)N[C@@H](Cc2ccccc2)CC(=O)N1C", "PAMPA (10^-6 cm/s)": "2"}
{"smiles": "CC(C)C[C@@H]1NC(=O)[C@@H]2CCCN2C(=O)[C@H](CC(C)C)N(C)C(=O)[C@H](CC(C)C)NC(=O)[C@H](C)N(C)C(=O)[C@@H]2CCCN2C(=O)[C@H](Cc2ccccc2)NC1=O", "PAMPA (10^-6 cm/s)": "1.2"}
{"smiles": "CC(C)C[C@@H]1NC(=O)C[C@H](Cc2ccccc2)NC(=O)[C@H](Cc2ccccc2)NC(=O)[C@H](CC(C)C)NC(=O)[C@H]2CCCN2C(=O)[C@H](CC(C)C)NC1=O", "PAMPA (10^-6 cm/s)": "7.2"}
{"smiles": "CC(C)C[C@@H]1NC(=O)[C@@H](C)N(C)C(=O)[C@H]2CCCN2C(=O)[C@H](Cc2ccccc2)NC(=O)[C@@H](CC(C)C)NC(=O)[C@H]2CCCN2C(=O)CN(Cc2ccccc2)C1=O", "PAMPA (10^-6 cm/s)": "0.71"}
{"smiles": "CC(C)C[C@@H]1C(=O)N2CCC[C@H]2C(=O)N(C)[C@H](CC(C)C)C(=O)N[C@@H](Cc2ccccc2)C(=O)N[C@@H](Cc2ccccc2)CC(=O)N(C)[C@@H](CC(C)C)C(=O)N1C", "PAMPA (10^-6 cm/s)": "5.1"}
{"smiles": "CC(C)C[C@@H]1NC(=O)[C@@H](CC(C)C)NC(=O)C[C@H](Cc2ccccc2)NC(=O)[C@H](Cc2ccccc2)NC(=O)CN(Cc2ccccc2)C(=O)[C@@H]2CCCN2C1=O", "PAMPA (10^-6 cm/s)": "1.5"}

A selection of 2 entries from above:

{"smiles": "CC(C)C[C@@H]1NC(=O)[C@@H](C)NC(=O)[C@@H]2CCCN2C(=O)[C@H](Cc2ccccc2)NC(=O)[C@H](CC(C)C)NC(=O)[C@@H]2CCCN2C(=O)[C@@H](CC(C)C)NC1=O", "PAMPA (10^-6 cm/s)": "0.47"}
{"smiles": "CCCN1CC(=O)N[C@@H](CC(C)C)C(=O)N(C)[C@@H](CC(C)C)C(=O)N2CCC[C@@H]2C(=O)N[C@@H](CC(C)C)C(=O)N[C@@H](Cc2ccccc2)C(=O)N2CCC[C@@H]2C1=O", "PAMPA (10^-6 cm/s)": "4.8"}